These results are taken from PubChem BioAssay AID434973 (Sanford-Burnham Center for Chemical Genomics, 2010).

By UniProt entry, the sequences of proteins in these tests, tags left out. Where a name states a change or a piece, a line headed by the entry shows the natural chain unless it says otherwise.
UniProt Q9BQF6: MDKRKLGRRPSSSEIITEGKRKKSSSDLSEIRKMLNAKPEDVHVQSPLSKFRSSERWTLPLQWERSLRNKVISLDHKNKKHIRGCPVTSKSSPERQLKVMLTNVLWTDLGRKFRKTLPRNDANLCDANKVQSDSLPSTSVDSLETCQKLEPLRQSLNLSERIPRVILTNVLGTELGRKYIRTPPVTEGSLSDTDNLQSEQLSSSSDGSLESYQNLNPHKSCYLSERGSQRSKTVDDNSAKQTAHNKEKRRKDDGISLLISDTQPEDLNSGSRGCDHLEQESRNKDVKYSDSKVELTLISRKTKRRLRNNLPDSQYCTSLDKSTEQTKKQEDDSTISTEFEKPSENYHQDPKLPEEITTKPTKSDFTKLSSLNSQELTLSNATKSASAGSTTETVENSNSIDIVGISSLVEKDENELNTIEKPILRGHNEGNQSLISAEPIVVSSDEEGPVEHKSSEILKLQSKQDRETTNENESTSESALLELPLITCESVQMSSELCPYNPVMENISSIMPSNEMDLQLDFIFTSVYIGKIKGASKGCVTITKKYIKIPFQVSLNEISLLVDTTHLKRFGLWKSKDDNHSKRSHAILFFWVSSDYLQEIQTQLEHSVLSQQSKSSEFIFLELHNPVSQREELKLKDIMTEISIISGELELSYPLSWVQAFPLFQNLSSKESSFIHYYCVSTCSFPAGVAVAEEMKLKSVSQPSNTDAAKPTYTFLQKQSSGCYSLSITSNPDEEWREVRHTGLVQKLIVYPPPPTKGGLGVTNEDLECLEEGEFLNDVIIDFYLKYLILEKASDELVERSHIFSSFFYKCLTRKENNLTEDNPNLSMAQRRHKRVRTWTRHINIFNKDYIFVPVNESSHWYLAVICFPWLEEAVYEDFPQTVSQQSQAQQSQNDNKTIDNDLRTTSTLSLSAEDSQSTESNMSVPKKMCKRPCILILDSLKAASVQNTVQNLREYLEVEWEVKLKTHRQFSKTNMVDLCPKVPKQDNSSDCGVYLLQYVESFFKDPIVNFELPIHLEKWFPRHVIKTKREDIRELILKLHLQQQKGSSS

This is a selection; strong and weak results do not stand in their true shares. Activity calls are given as the source filed them.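 Rule for the calls: active = inhibition above about 50% at the single test dose (limit read from the data); inactive = the rest.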

For this assay, the target named is Sentrin-specific protease 7 (Homo sapiens) (UniProt Q9BQF6). Nature of the assay: SENP7 protease inhibitors, primary screen, biochemical, luminescence, uHTS (AID 434973).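 Note: plate controls were DMSO with enzyme for no effect and no enzyme buffer wells for full effect.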 The settings on record: recombinant SENP7, Z-RLRGG-aminoluciferin luminescence, 40 min; at 5 µM; active compounds read high.
With `COc1cc(C2NCCC3(OCCO3)C2(C)C)cc(OC)c1OC` (stereo unspecified), the inhibition is inactive: 4.44%.

`CCOP(=O)(Nc1cccc2ccccc12)OCC`: the inhibition was inactive: -2.44%.

For `Cc1ccc(NCCc2c([N+](=O)[O-])cc([N+](=O)[O-])cc2[N+](=O)[O-])cc1`, the inhibition is inactive: 12.2%.

As to `CCCOP(=S)(Nc1nc(N)cc(=O)[nH]1)OCCC`, the inhibition is inactive: -5.25%.

`O=[As](O)(c1cccc(O)c1)c1cccc(O)c1`: the inhibition is inactive: 8.03%.

As to `Cc1cccc(OCC(=O)OC2CN3CCC2CC3)c1` (stereo unspecified), the inhibition was inactive: 3.02%.

`O=C(OC1CN2CCC1CC2)c1ccc(Cl)cc1` (stereo unspecified): the inhibition is inactive: -0.508%.

For the compound `COc1cc(C(=O)NCC2(N3CCOCC3)CCCCC2)cc(Cl)c1OC(C)C`, the inhibition is inactive: 1.43%.

With `O=[As](O)(O)c1cccnc1`, the inhibition is inactive: 5.13%.

In the case of `CS(=O)(=O)c1ccc(Cl)c(NC(=O)COC(=O)C(O)(c2ccccc2)c2ccccc2)c1`, the inhibition is inactive: -14.7%.

`N#CCCN(C(=O)COC(=O)C(O)(c1ccccc1)c1ccccc1)c1ccc(F)cc1`: the inhibition was inactive: -6.78%.

For the compound `CCOP1(=S)c2c(C)nn(CCC#N)c2N=C(c2ccc(F)cc2)N1C` (stereo unspecified), the inhibition was inactive: -5.54%.

In the case of `CN(C(=O)Cc1ccccc1)[C@@H]1CC[C@]2(CCCO2)C[C@H]1N1CCCC1`, the inhibition was inactive: -5.22%.

As to `CN(C)C(=O)c1cc([N+](=O)[O-])cc2c1-c1c(cc([N+](=O)[O-])cc1[N+](=O)[O-])C2=O`, the inhibition was inactive: -5.92%.

For the compound `O=[N+]([O-])c1ccc2c(c1)nnn2O`, the inhibition is inactive: -4.48%.

Turning to `CN(C(=O)Cc1ccc(Cl)c(Cl)c1)[C@H]1CC[C@@]2(CCCO2)C[C@@H]1N1CCCC1`, the inhibition was inactive: -5.22%.

Consider `NC(=O)Nc1ccc([As](=O)(O)O)cc1`, for which the inhibition is inactive: 14.1%.

Consider `O=C(O)COc1ccc([As](=O)(O)O)cc1[N+](=O)[O-]`, for which the inhibition was inactive: 8.74%.

In the case of `Nc1ccccc1[As](=O)(O)c1ccccc1`, the inhibition was inactive: -3.54%.

For the compound `CCOP1(=S)c2c(C)nn(CCC#N)c2N=C(c2ccccc2F)N1C` (stereo unspecified), the inhibition was inactive: 5.81%.

For `O=P(Nc1nccs1)(c1ccccc1)c1nc2ccccc2s1` (stereo unspecified), the inhibition is inactive: -7.81%.

In the case of `O=P(Nc1nccs1)(Oc1ccccc1)Oc1ccccc1`, the inhibition was inactive: -8.22%.

As for `CS(=O)(=O)c1cc([N+](=O)[O-])c2no[n+]([O-])c2c1`, the inhibition was inactive: 0.644%.

For the compound `Nc1cccc([As](=O)(O)c2ccccc2)c1`, the inhibition is inactive: -9.23%.

For the compound `NS(=O)(=O)c1cccc(NC(=O)COC(=O)C(O)(c2ccccc2)c2ccccc2)c1`, the inhibition is inactive: 3.95%.

`O=P1(Nc2ccc(Br)cn2)COc2ccccc2OC1`: the inhibition is inactive: -3.4%.

As to `O=[As](O)(c1cccs1)c1cccs1`, the inhibition is inactive: -0.443%.

For the compound `Cc1ccc(OCC(=O)OC2CN3CCC2CC3)cc1` (stereo unspecified), the inhibition is inactive: 4.95%.

In the case of `O=P1(Nc2ncccn2)COc2ccccc2OC1`, the inhibition is inactive: -1.36%.

Consider `CN(C)C1(CNC(=O)c2ccc(S(C)(=O)=O)cc2)CCCCC1`, for which the inhibition was inactive: -8.64%.

`O=C(/C=C/c1ccccc1)OC1CN2CCC1CC2` (stereo unspecified): the inhibition is inactive: -17%.

In the case of `Cc1nn(-c2ccccc2)c2c1P(=O)(N1CCOCC1)N(C)C(c1ccccc1)=N2` (stereo unspecified), the inhibition was inactive: -4.41%.

With `Cc1ccc(C(=O)OC2CN3CCC2CC3)cc1` (stereo unspecified), the inhibition is inactive: 0.789%.

As for `CC1CCC(C(C)C)C(OP(=O)(Nc2ccccn2)c2ccccc2)C1` (stereo unspecified), the inhibition is inactive: 2.05%.

For the compound `CN(C(=O)Cc1ccc(Cl)c(Cl)c1)[C@@H]1CCCC[C@H]1N1CCCC1`, the inhibition is inactive: -3.19%.

Turning to `CC(C)/C=N\N=C(\N)N[N+](=O)[O-]`, the inhibition is inactive: -0.691%.

As for `O=[As](O)(c1ccccc1Br)c1ccccc1Br`, the inhibition is inactive: 9.2%.

On to `CC1(CBr)Cn2c(nc3ccccc3c2=O)S1` (stereo unspecified), for which the inhibition was inactive: -4.14%.

As to `COc1ccccc1CNC(=O)COC(=O)C(O)(c1ccccc1)c1ccccc1`, the inhibition was inactive: 2.02%.

Regarding `Clc1n[nH]nc1-c1nn[nH][15n]1`, the inhibition was inactive: -1.85%.

As for `CC(C)(C)C(=O)NC(Sc1ncccn1)C(Cl)(Cl)Cl` (stereo unspecified), the inhibition is inactive: 4.86%.

With `CCC1=CC2Cc3nc4ccc(Cl)cc4c(N)c3C(C1)C2` (stereo unspecified), the inhibition was inactive: 1.82%.

Take `O=P1(Nc2ccccn2)COc2ccccc2OC1`: the inhibition is inactive: -6.01%.

For `CCOP(=O)(NC(=NC(C)c1ccccc1)NC(C)c1ccccc1)OCC` (stereo unspecified), the inhibition was inactive: -3.31%.

As to `CN(CCCl)Cc1cc(Cl)c(NC2=NCCN2)c(Cl)c1`, the inhibition is inactive: 0.11%.

On to `CCOP(=O)(Nc1ccc(C)cn1)OCC`, for which the inhibition was inactive: 0.541%.

With `CCC(C)N(CC(C)C)C(=S)SC(NC(C)=O)C(Cl)(Cl)Cl` (stereo unspecified), the inhibition was inactive: -3.28%.

Take `O=C(OC1CN2CCC1CC2)c1cccc([N+](=O)[O-])c1` (stereo unspecified): the inhibition was inactive: -6.65%.

As for `CCOC(=O)c1ccc(NC(=O)C(C)(CCl)SC)cc1` (stereo unspecified), the inhibition was inactive: -5.33%.

For the compound `O=C(COc1ccccc1)OC1CN2CCC1CC2` (stereo unspecified), the inhibition is inactive: 4.8%.

On to `O=C(Nc1ccncc1[N+](=O)[O-])c1ccc([N+](=O)[O-])cc1[N+](=O)[O-]`, for which the inhibition was inactive: 4.78%.

For `COP1(=S)c2c(C)nn(CCC#N)c2N=C(c2ccc(F)cc2)N1C` (stereo unspecified), the inhibition was inactive: 10.7%.

Turning to `Cc1cc(SC(NC=O)C(Cl)(Cl)Cl)ncn1` (stereo unspecified), the inhibition was inactive: -10.9%.

As for `O=P(Nc1ccccn1)(c1cccc2ccccc12)c1cccc2ccccc12`, the inhibition was inactive: 0.954%.

For `CCOC(=O)Nc1cccc([As](=O)(O)O)c1`, the inhibition was inactive: -0.798%.

`CCCCOc1ccc(C(=O)NCC2(N3CCCCC3)CCCCC2)cc1OC`: the inhibition was inactive: 8.35%.

On to `Cc1cc(SC(NC(=O)c2ccccc2)C(Cl)(Cl)Cl)nc(C(C)C)n1` (stereo unspecified), for which the inhibition is inactive: -3.17%.

For `CCOC(=O)Nc1ccc([As](=O)(O)O)c(O)c1`, the inhibition was inactive: 3.36%.

As for `O=C(OC1CN2CCC1CC2)c1cccc2[nH]cnc12` (stereo unspecified), the inhibition is inactive: 3.25%.

`CCN(CC)C(=S)SC(NC=O)C(Cl)(Cl)Cl` (stereo unspecified): the inhibition was inactive: 11.3%.

Regarding `CC(C)NC(=O)NP(=O)(Oc1ccccc1)Oc1ccccc1`, the inhibition is inactive: 2.61%.

As to `O=[N+]([O-])c1cc([N+](=O)[O-])c(-c2ccn[nH]2)s1`, the inhibition was inactive: -5.5%.

Take `ClCCSc1nnc(-c2cccnc2)o1`: the inhibition was inactive: 3.64%.

As to `CC(C)c1ccc(OP(=O)(Nc2ccccn2)Oc2ccccc2F)cc1` (stereo unspecified), the inhibition is inactive: 1.19%.

As for `Cc1ccc(OP(=O)(Nc2ccc([N+](=O)[O-])cn2)Oc2ccc(C)cc2)cc1`, the inhibition is inactive: 3.89%.

Take `Cc1ccc2nc3c(c(C)c2c1)CC(C(Cl)Cl)S3` (stereo unspecified): the inhibition is inactive: -4.52%.

As for `C[As](=O)(O)c1cccc(C(=O)O)c1`, the inhibition was inactive: 7.24%.

In the case of `O=[As](O)(c1ccc(O)cc1)c1ccccc1O`, the inhibition was inactive: -2.94%.

Consider `COc1cc(C(=O)NCC2(N3CCOCC3)CCCCC2)ccc1OCC(C)C`, for which the inhibition is inactive: 0.953%.

Consider `COc1ccc(N/C(=N/P(=O)(N2CCOCC2)N2CCOCC2)N2CCOCC2)cc1`, for which the inhibition is inactive: 3.92%.

In the case of `COc1ccc2nc(NP(=O)(c3ccccc3)c3ccccc3)sc2c1`, the inhibition was inactive: -4.59%.

Regarding `COc1cc(I)ccc1[As](=O)(O)O`, the inhibition was inactive: -4.43%.

For `Cc1c2c(nc3ccccc13)SC(C(Cl)Cl)C2` (stereo unspecified), the inhibition was inactive: -6.5%.

`O=C(OC1CN2CCC1CC2)C12CC3CC(CC(C3)C1)C2` (stereo unspecified): the inhibition is inactive: 5.97%.

Consider `Cc1cc(=O)[nH]c(N[N+](=O)[O-])n1`, for which the inhibition is inactive: -5.5%.

Consider `Oc1ccccc1CNc1ccccn1`, for which the inhibition was inactive: -3.7%.

Regarding `Cc1c2non([O-])c-2c(C)[n+](=O)[n+]1[O-]`, the inhibition is inactive: 3.48%.

With `O=C(NC(Sc1ccncn1)C(Cl)(Cl)Cl)c1ccccc1` (stereo unspecified), the inhibition was inactive: -5.51%.

As for `CC(C)CC(=O)NC(Sc1ccc(Cl)cc1)C(Cl)(Cl)Cl` (stereo unspecified), the inhibition is inactive: -4.85%.

For `Nc1cc(N)c2nonc2c1[N+](=O)[O-]`, the inhibition is inactive: 6.51%.

For `Clc1ccc(Cl)c(NC2=NCC(CBr)S2)c1` (stereo unspecified), the inhibition was inactive: 3.98%.

On to `CN1CCCC(OC(=O)C(c2ccccc2)c2ccccc2)C1` (stereo unspecified), for which the inhibition is inactive: 0.1%.

Consider `COc1ccccc1OP(=O)(Nc1ccc(C)cn1)Oc1ccccc1OC`, for which the inhibition was inactive: -14.6%.

Consider `Cc1ccc(OP(=O)(Nc2nccs2)Oc2ccc(C)cc2)cc1`, for which the inhibition was inactive: 0.462%.

Take `CN(C(=O)Cc1ccc(Cl)c(Cl)c1)[C@H]1CCCC[C@H]1N1CCCC1`: the inhibition is inactive: 3%.

On to `Cc1ccc(N/C(=N/P(=O)(N2CCOCC2)N2CCOCC2)N2CCOCC2)cc1`, for which the inhibition was inactive: 7.62%.

Turning to `NC(=O)c1cc([N+](=O)[O-])cc([N+](=O)[O-])c1N`, the inhibition was inactive: -14.5%.

On to `CCN(N=Nc1nonc1N)c1nonc1N`, for which the inhibition was inactive: -1.36%.

For `O=[N+]([O-])c1cc([N+](=O)[O-])c(CCN2CCOCC2)c([N+](=O)[O-])c1`, the inhibition was inactive: 8.63%.

Consider `CCOP(=O)(Nc1ccccc1)OCC`, for which the inhibition was inactive: -3.48%.

`Cc1cc(SC(NC(=O)c2ccc(F)cc2)C(Cl)(Cl)Cl)ncn1` (stereo unspecified): the inhibition was inactive: -6.53%.

Take `CN(C(=O)Cc1ccc(Cl)c(Cl)c1)[C@H]1CCCC[C@@H]1N1CCCC1`: the inhibition is inactive: -2.76%.

For the compound `Cc1ccc(NP(=O)(Oc2ccccc2F)Oc2ccccc2F)nc1`, the inhibition is inactive: 7.18%.

With `O=P(Nc1nc2ccc(Cl)cc2s1)(c1ccccc1)c1ccccc1`, the inhibition is inactive: -8.7%.

On to `O=C(O)c1ccccc1[As](=O)(O)O`, for which the inhibition is inactive: -3.95%.

For `CC(=O)Nc1ccc([As](=O)(O)O)cc1`, the inhibition is inactive: -0.787%.

For `O=[N+]([O-])c1cccc(NC2=NCC(CBr)S2)c1` (stereo unspecified), the inhibition is inactive: 5.17%.

In the case of `O=[N+]([O-])c1ncn(CCn2ncnc2[N+](=O)[O-])n1`, the inhibition is inactive: -2.38%.

For the compound `CC(C)(C)C(=O)NC(Sc1ccncn1)C(Cl)(Cl)Cl` (stereo unspecified), the inhibition is inactive: 2.14%.

As for `O=C(Nc1cc([As](=O)(O)O)ccc1O)c1ccccc1`, the inhibition is inactive: -8.84%.

Regarding `CC1CCN(C(=O)Oc2c(Cl)cc(Cl)c3cccnc23)CC1`, the inhibition is inactive: -2.64%.

What is called inhibition is the drop in the measured response relative to a control, in per cent.
